Tests used:
[1] = biological target: T1, Stimulator of interferon genes protein (Homo sapiens, UniProt Q86WV6); experiment: Potency index, ratio of test compound EC50 to prodrug EC50 for activation of wild-type human STING expressed in HEK293T cells co-expressing IRF3-activated ISRE assessed as IRF3 reporter activation measured after 7 hrs by luciferase reporter gene assay; assay type: cell-based
[2] = biological target: T1, Stimulator of interferon genes protein; experiment: Potency index, ratio of test compound EC50 to prodrug EC50 for activation of wild-type human STING expressed in human THP1-Dual cells co-expressing IRF3-activated ISRE assessed as IRF3 reporter activation measured after 30 mins by luciferase reporter gene assay; assay type: cell-based
[3] = biological target: T1, Stimulator of interferon genes protein; experiment: Potency index, ratio of test compound EC50 to prodrug EC50 for activation of wild-type human STING expressed in digitonin treated THP1-Dual cells co-expressing IRF3-activated ISRE assessed as IRF3 reporter activation measured after 7 hrs by luciferase reporter gene assay; assay type: cell-based
[4] = biological target: T1, Stimulator of interferon genes protein; experiment: Potency index, ratio of test compound EC50 to prodrug EC50 for activation of wild-type human STING expressed in HEK293T cells co-expressing IRF3-activated ISRE assessed as IRF3 reporter activation measured after 30 mins by luciferase reporter gene assay; assay type: cell-based
[5] = Potency index, ratio of test compound EC50 to prodrug EC50 for induction of TNF-alpha production in healthy human PBMC incubated for 16 hrs; assay type: functional

Sequences of proteins named here, by UniProt entry; tags and fusion partners are left off. A change or cut given only in a name is not applied to a line headed by its entry.
UniProt Q86WV6: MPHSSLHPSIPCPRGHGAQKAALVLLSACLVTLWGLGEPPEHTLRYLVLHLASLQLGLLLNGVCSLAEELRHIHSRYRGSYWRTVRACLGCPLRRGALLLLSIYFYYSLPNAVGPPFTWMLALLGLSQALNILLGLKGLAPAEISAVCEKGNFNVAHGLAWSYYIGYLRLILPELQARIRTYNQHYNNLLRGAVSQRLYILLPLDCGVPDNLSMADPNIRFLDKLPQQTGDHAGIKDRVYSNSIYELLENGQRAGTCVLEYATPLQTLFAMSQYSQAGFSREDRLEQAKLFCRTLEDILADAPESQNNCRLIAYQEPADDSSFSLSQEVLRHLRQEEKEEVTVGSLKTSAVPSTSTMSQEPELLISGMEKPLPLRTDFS

| Ratio EC50 [1] | Ratio EC50 [2] | Ratio EC50 [3] | Ratio EC50 [4] | SMILES | Ratio EC50 [5] |
| --- | --- | --- | --- | --- | --- |
| 275 | 55 | 21 | 421 | CCC(CC)C(=O)OCO[P@@]1(=O)OC[C@H]2O[C@@H](n3cnc4c(N)ncnc43)[C@H](F)[C@@H]2O[P@](=O)(OCOC(=O)C(CC)CC)OC[C@H]2O[C@@H](n3cnc4c(N)ncnc43)[C@H](F)[C@@H]2O1 |  |
| 980 | 179 | 57 | 1500 | CCC(CC)C(=O)OCO[P@]1(=O)OC[C@H]2O[C@@H](n3cnc4c(N)ncnc43)[C@H](F)[C@@H]2O[P@](=O)(OCOC(=O)C(CC)CC)OC[C@H]2O[C@@H](n3cnc4c(N)ncnc43)[C@H](F)[C@@H]2O1 |  |
| 248 | 50 | 35 | 309 | CC(C)OC(=O)OCO[P@]1(=O)OC[C@H]2O[C@@H](n3cnc4c(N)ncnc43)[C@H](F)[C@@H]2O[P@](=O)(OCOC(=O)OC(C)C)OC[C@H]2O[C@@H](n3cnc4c(N)ncnc43)[C@H](F)[C@@H]2O1 |  |
| 48 | 20 | 10 | 102 | CC(C)OC(=O)OCO[P@@]1(=O)OC[C@H]2O[C@@H](n3cnc4c(N)ncnc43)[C@H](F)[C@@H]2O[P@](=O)(OCOC(=O)OC(C)C)OC[C@H]2O[C@@H](n3cnc4c(N)ncnc43)[C@H](F)[C@@H]2O1 |  |

| SMILES | Ratio EC50 [1] | Ratio EC50 [2] | Ratio EC50 [3] | Ratio EC50 [4] | Ratio EC50 [5] |
| --- | --- | --- | --- | --- | --- |
| CC(C)(C)C(=O)OCO[P@@]1(=O)OC[C@H]2O[C@@H](n3cnc4c(N)ncnc43)[C@H](F)[C@@H]2O[P@](=O)(OCOC(=O)C(C)(C)C)OC[C@H]2O[C@@H](n3cnc4c(N)ncnc43)[C@H](F)[C@@H]2O1 | 209 | 105 | 22 | 1330 | 133 |
| CC(C)(C)C(=O)OCO[P@]1(=O)OC[C@H]2O[C@@H](n3cnc4c(N)ncnc43)[C@H](F)[C@@H]2O[P@](=O)(OCOC(=O)C(C)(C)C)OC[C@H]2O[C@@H](n3cnc4c(N)ncnc43)[C@H](F)[C@@H]2O1 | 441 | 173 | 32 | 3080 |  |

Reference: ChEMBL document CHEMBL5036318, “Synthesis and Biological Evaluation of Phosphoester and Phosphorothioate Prodrugs of STING Agonist 3',3'-c-Di(2'F,2'dAMP)” (J Med Chem, 2021)
